Assay results from article PMC12369477, “Phenylacetic acid metabolism in land plants: novel pathways and metabolites” (Journal of Experimental Botany, 2025).

Assays:
UGT74D1 = molecular target: T1, UGT74D1 (Arabidopsis thaliana, UniProt Q9SKC5)
T1 sequence (Q9SKC5 1-456): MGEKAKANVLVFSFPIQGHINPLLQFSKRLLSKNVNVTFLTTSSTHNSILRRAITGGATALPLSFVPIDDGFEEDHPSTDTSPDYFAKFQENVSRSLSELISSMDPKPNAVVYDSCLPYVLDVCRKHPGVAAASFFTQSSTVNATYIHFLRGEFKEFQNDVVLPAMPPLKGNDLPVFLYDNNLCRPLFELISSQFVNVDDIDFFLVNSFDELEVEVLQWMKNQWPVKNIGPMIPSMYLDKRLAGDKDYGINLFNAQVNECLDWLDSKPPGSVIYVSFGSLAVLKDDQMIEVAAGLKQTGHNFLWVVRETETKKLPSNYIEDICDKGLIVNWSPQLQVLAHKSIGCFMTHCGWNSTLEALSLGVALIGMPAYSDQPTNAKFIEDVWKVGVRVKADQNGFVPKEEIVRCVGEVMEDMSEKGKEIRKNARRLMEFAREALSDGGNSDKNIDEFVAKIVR

UGT84B1 = molecular target: T2, UGT84B1 (Arabidopsis thaliana, UniProt O22182)
T2 sequence (O22182 1-456): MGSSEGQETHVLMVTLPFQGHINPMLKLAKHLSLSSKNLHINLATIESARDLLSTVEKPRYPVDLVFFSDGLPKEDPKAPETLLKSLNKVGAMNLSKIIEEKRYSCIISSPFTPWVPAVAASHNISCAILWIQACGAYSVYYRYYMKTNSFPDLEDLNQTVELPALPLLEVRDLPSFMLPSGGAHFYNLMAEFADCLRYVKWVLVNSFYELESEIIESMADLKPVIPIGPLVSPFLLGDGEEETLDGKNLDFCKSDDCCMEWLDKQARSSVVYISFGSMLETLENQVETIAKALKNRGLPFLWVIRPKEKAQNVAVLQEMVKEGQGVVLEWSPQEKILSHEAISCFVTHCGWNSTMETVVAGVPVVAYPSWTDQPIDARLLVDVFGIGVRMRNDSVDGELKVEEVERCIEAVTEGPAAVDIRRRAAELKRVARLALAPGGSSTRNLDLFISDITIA

## O=C(O)Cc1ccccc1 [PAA, phenylacetic acid]
UGT74D1
  bacterial lysate glucosylation assay, HPLC-MS/MS; knockout line: proved the capability of AtUGT74D1 to produce PAA-glc
UGT84B1
  bacterial lysate glucosylation assay, HPLC-MS/MS; knockout line: both experiments demonstrated involvement of UGT84B1 and UGT74D1 in PAA glucosylation
